In PMC7769078 (International Journal of Nanomedicine, 2020):

Experiments:
[1] = Brain pharmacokinetics after oral administration to rats; assay type: in vivo, Sprague-Dawley (SD) rats; conditions: rat, 4 mg/kg GB
[2] = Plasma pharmacokinetics after oral administration to rats; assay type: in vivo, Sprague-Dawley (SD) rats; conditions: rat, 4 mg/kg GB
MDCK cell monolayers = test: Permeation across MDCK cell monolayers; assay type: in vitro ADME, canine; conditions: apical-to-basolateral, 20 μM GB, HBSS pH 7.4
MDCK cells [3] = test: MTT viability assay in MDCK cells; assay type: cell-based, canine; conditions: 1–100 μM, 24 h
MDCK cells [4] = test: Cellular GB uptake in MDCK cells; assay type: cell-based, canine; conditions: GB concentration 20 μM, 2 h

Ginkgolide B [GB]
Cmax, brain [1]: 0.09 ± 0.01 µg/g | Tmax, brain [1]: 4.73 ± 0.51 h | AUC0-t, brain ([1]; 48 h): 1.05 ± 0.11 µg·h/g | Cmax, plasma [2]: 0.35 ± 0.04 µg/mL | T1/2, plasma [2]: 2.39 ± 0.32 h | AUC0-t, plasma ([2]; 48 h): 3.43 ± 0.37 µg·h/mL | Papp (MDCK cell monolayers): 1.08 ± 0.13×10^−5 cm/s | cytotoxic impact on MDCK cells (MDCK cells [3]): no significant cytotoxicity | cellular GB uptake (MDCK cells [4]): 0.98 ± 0.07 μg/mg protein
